From patent publication US20220397564A1, “ENGINEERING SPATIAL-ORGANIZED CARDIAC ORGANOIDS FOR DEVELOPMENTAL TOXICITY TESTING” (priority 2021, published 2022)

Tested on: hiPSC-based cardiac organoids
Assay: cardiac developmental toxicity assay on hiPSC-derived cardiac organoids (differentiation, contractile behavior, 3D morphology)

How did the “developmental toxicity on cardiac organoids (overall)” value (600 μm organoids, continuous exposure from Day 1, read Day 20, overall over tested concentrations) turn out when `O=C([O-])[O-].[Li+].[Li+]` [Lithium Carbonate] was run?
Its value is “mild developmental toxicity”.

What about the area ratio (high / higher concentrations) of the same compound?
Its area ratio is “moderate toxicity”.
